Article PMC4033651 (Journal of Medicinal Chemistry, 2014)

System: mice
Settings: mouse, in vivo

Structure (SMILES): CO[C@@]12CC[C@@]3(C[C@@H]1[C@](C)(O)C(C)(C)C)[C@H]1Cc4ccc(O)c5c4[C@@]3(CCN1CC1CC1)[C@H]2O5 [Compound 1b, buprenorphine]
- Agonist activity in the acetic acid stretch test: potent and fully efficacious
